Experimental findings from patent US20260048100A1 are described below.

In this assay the target is receptor of IL-15 on the target cell (Mo7e cells). The experiment in a line: cell-based or functional assay.

Turning to “LIC23 fusion protein after cleavage by MMP”, the EC50, Mo7e cell proliferation (CCK-8) was 125 nM.
